{"source": "patent US12576127B2", "about": "“Fibroblast binding agents and use thereof” (Orionis Biosciences, Inc., priority 2018, dated 2026)", "key": {"HL116 cells": {"test_system": "HL116 cells", "test": "Luciferase reporter activity on parental HL116 cells", "assay_type": "cell-based", "conditions": "parental HL116, 6 hours stimulation"}, "HL116-hFAP cells": {"test_system": "HL116-hFAP cells", "test": "Luciferase reporter activity on HL116-hFAP cells", "assay_type": "cell-based, human"}}, "data": [{"substance": "Wild type IFN: wild type, untargeted IFNα2", "values": [{"measurement": "EC50 HL116", "setting": "HL116 cells", "value": 0.11, "unit": "ng/mL"}, {"measurement": "Targeting Index (ratio EC50 HL116/HL116-FAP)", "setting": "HL116-hFAP cells", "value": 1.2}, {"measurement": "EC50 HL116-FAP", "setting": "HL116-hFAP cells; HL116-hFAP, 6 hours stimulation, luciferase", "value": 0.09, "unit": "ng/mL"}]}]}
